This is an account of results in ChEMBL document CHEMBL3822362, “Effects of N-Substitutions on the Tetrahydroquinoline (THQ) Core of Mixed-Efficacy μ-Opioid Receptor (MOR)/δ-Opioid Receptor (DOR) Ligands” (J Med Chem, 2016).

Sequences of proteins named here, by UniProt entry; tags and fusion partners are left off. A change or cut given only in a name is not applied to a line headed by its entry.
UniProt P41145: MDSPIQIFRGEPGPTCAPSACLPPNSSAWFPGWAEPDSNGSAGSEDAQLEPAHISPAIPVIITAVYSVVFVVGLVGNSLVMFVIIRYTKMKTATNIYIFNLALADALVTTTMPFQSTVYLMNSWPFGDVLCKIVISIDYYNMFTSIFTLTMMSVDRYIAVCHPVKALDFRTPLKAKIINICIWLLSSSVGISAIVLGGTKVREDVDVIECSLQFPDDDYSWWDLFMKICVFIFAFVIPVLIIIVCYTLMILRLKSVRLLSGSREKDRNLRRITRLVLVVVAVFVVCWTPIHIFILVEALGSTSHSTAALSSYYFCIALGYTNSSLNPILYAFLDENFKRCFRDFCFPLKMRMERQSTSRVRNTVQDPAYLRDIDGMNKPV
UniProt P33533, whole entry: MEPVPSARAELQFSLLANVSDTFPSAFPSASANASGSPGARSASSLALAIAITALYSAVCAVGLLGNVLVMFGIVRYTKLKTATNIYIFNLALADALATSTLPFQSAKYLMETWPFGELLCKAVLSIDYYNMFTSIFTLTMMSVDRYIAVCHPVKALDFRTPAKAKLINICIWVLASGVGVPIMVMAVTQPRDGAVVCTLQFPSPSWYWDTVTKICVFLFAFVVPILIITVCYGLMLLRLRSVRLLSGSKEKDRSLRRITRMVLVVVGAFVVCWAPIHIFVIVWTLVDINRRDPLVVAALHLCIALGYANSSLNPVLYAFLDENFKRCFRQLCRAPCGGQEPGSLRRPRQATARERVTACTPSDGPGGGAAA

Assay [1] has as its target Kappa-type opioid receptor (Homo sapiens, UniProt P41145). The assay can be described thus: Agonist activity at human KOR expressed in CHO cell membranes at 10 uM after 1 hr by [35S]GTPgammaS assay relative to U69,593. The class given is functional. The gist of the method: (§1)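 Membranes (10–20 μg protein) from cells grown to confluence in DMEM/10% FBS, incubated 1 h at 25 °C in 50 mM Tris-HCl, 100 mM NaCl, 5 mM MgCl2, pH 7.4 with 0.1 nM [35S]GTPγS, 30 μM GDP and varying peptidomimetic concentrations. Filtered on GF/C, counted by scintillation. % stimulation relative to 10 μM DAMGO (MOR), DPDPE (DOR) or U69,593 (KOR).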

For assay [2], the target named is Delta-type opioid receptor (Rattus norvegicus) (UniProt P33533). Nature of the assay: Agonist activity at rat DOR transfected in rat C6 cell membranes at 10 uM after 1 hr by [35S]GTPgammaS assay relative to DPDPE. The class given is functional. The gist of the method:
as §1

Active and inactive are the calls of the source. No cut-off for these calls is given here.

In the case of `COC(=O)N1CC[C@@H](NC(=O)[C@@H](N)Cc2c(C)cc(O)cc2C)c2cc(Cc3ccc4ccccc4c3)ccc21`, the Emax entry in assay [1] and in assay [2] was “inactive” each time. For the compound `CCC(=O)N1CC[C@@H](NC(=O)[C@@H](N)Cc2c(C)cc(O)cc2C)c2cc(Cc3ccc4ccccc4c3)ccc21`, the Emax result in assay [2] is “inactive”. Regarding `Cc1cc(O)cc(C)c1C[C@H](N)C(=O)N[C@@H]1CCN(C(=O)c2ccccc2)c2ccc(Cc3ccccc3)cc21`, the Emax entry in assay [2] is “inactive”.
